{"source": "patent US20140121182A1", "about": "“PROTEASOME INHIBITORS AND PROCESSES FOR THEIR PREPARATION, PURIFICATION AND USE” (Cephalon, Inc., priority 2011, published 2014)", "experiment": "Storage for approximately one year at ambient indoor temperature and humidity, HPLC purity", "type": "physicochemical", "details": "in a vial at the rear of a fume hood", "procedure": "A 100 mL three neck round bottom flask equipped with a stir bar, thermocouple and nitrogen inlet is charged with 6.0 g (16.6 mmol) of Compound 1 (98.5A % purity) and 60 mL of ethyl acetate then stirred for five minutes at room temperature to dissolve the solids. Diethanol amine (1.68 g, 16.0 mmol) is charged and solids begin to form when addition is only ⅔ complete. The white slurry is stirred at room temperature for two hours and then the solids are collected by vacuum filtration, washed with 50 mL of ethyl acetate and dried overnight in a vacuum oven at 40° C. A quantitative yield of the desired product is obtained as a crystalline solid with an HPLC purity of 99.7A %. After storing for approximately one (1) year at ambient indoor temperature and humidity (in a vial at the rear of a fume hood), the HPLC purity was 99.9A %. ^1H NMR (d6-DMSO, 400 MHz) δ 8.8 (t, 1H, J=5.88 Hz), 7.55 (s, 2H), 7.52 (s, 1H), 6.99 (d, 1H, J=8.36 Hz), 6.57 (s, b, 1H), 3.85 (dq, 1H, J=16.1, 5.92 Hz), 3.69 (m, 2H), 3.57 (m, 1H), 3.14 (m, 1H), 2.99 (m, 2H), 2.75 (m, 1H), 2.69 (m, 1H), 1.59 (m, 1H), 1.31 (m, 1H), 1.22 (m, 1H), 0.824 (d, 3H, J=6.64 Hz), 0.797 (D, 3 h, J=6.48 Hz) […]"}
{"substance": "2,5-Dichloro-N—[(R)-3-methyl-1-(6-methyl-[1,3,6,2]dioxazaborocan-2-yl)-butylcarbamoyl]-methylbenzamide", "values": [{"measurement": "HPLC purity after storing for approximately one (1) year", "result": 99.6, "unit": "A %"}]}
